Earlier results in patent US20050244328A1 (priority 2002, published 2005).

Details: chlorine dioxide gas; cited from earlier work

In the case of Chlorine dioxide, the “pressure above which the gas is unstable and explosive” value is listed as “over 40 kPA”.
